# According to US5597804A, “N-sulfonylarginine keto-amide compounds” (Corvas International, Inc., priority 1993, dated 1997):
# Key:
# human α-thrombin [1] = target: T1, human α-thrombin (Homo sapiens, UniProt P00734); experiment: Thrombin assay, IC50 determination with substrate Pefachrome t-PA; conditions: Table I, 30 minutes incubation at room temperature
# Experimental: (§1) The ability of the compounds of the present invention to act as inhibitors of thrombin catalytic activity was assessed by determining their inhibition constant, Ki, and the concentration which inhibited enzyme activity by 50%, IC50, against thrombin.
# (§2) Enzyme activity was determined using the chromogenic substrates, S2266 (H-D-valyl-L-leucyl-L-arginine-p-nitroaniline, obtained from Kabi Diagnostica) or Pefachrome t-PA (CH3 SO2 -D-hexahydrotyrosine-glycyl-L-Arginine-p-nitroaniline, obtained from Pentapharm Ltd.). The subtrates were reconstituted in deionized water prior to use. Purified human α-thrombin was obtained from Enzyme Research Laboratories, Inc. The buffer used for all assays was HBSA (10 mM HEPES, pH 7.5, 150 mM sodium chloride, 0.1% bovine serum albumin).
# IC50 determinations were conducted where HBSA (50 mL), α-thrombin (50 μl) and inhibitor (50 μl) (covering a broad concentration range), were combined in appropriate wells and incubated for 30 minutes at room temperature prior to the addition of substrate Pefachrome-t-PA (50 μl). The initial velocity of Pefachrome t-PA hydrolysis was measured by the change in absorbance at 405 nm using a Thermo Max® Kinetic Microplate Reader over a 5 minute period in which less than 5% of the added substrate was utilized. The concentration of added inhibitor which caused a 50% decrease in the initial rate of hydrolysis was defined as the IC50 value.
# human α-thrombin [2] = target: T1, human α-thrombin; experiment: Thrombin assay, Ki determination with chromogenic substrate S-2266
# Experimental: as §1, §2
# The assay for Ki determinations was conducted by combining in appropriate wells of a Corning microtiter plate, 50 mL of HBSA, 50 mL of the test compound at a specified concentration diluted in HBSA (or HBSA alone for Vo (uninhibited velocity) measurement), and 50 mL of the chromogenic substrate S-2266 at a specified concentration diluted in HBSA. At time zero, 50 mL of α-thrombin diluted in HBSA, was added to the wells yielding a final concentration of 0.5 nM in a total volume of 200 mL. Velocities of S-2266 substrate hydrolysis which occurred over a designated time period was measured by the change in absorbance at 405 nm using a Thermo Max® Kinetic Microplate Reader.
# The extent of substrate hydrolysis was less than 5% over the course of this assay. 2) For test compounds showing rapid, reversible kinetics of inhibition, Ki values were determied from initial velocities using the relationships developed by Dixon, M., Biochem. J., 129: 197 (1972).
# [3] = tested on: Harlan Sprague Dawley rats; experiment: Extracorporeal shunt model in rats; conditions: mean ± S.E.M. (n = 6)
# Source text: Extracorporeal Shunt Model in Rats
# This is one of the most common and generally used models in the evaluation of antithrombotic compounds. Smith, J. R. and White, A. M. Br. J. Pharmacol., 77: 29-38 (1982). In this model a localized clot made up of primarily fibrin with some platelet and macrophage involvement (Shand, R. A. and Smith, J. R. and Wallis, R. B. Thromb. Res., 36: 223-232 (1984)), is formed on an artificial thrombogenic surface (typically a segment of silk or cotton thread) contained in a sialstic chamber which is part of an exteriorized shunt between the carotid artery and jugular vein.
# The effect of the compound of Example 8 on the formation of a thrombus on the thrombogenic surface was measured using clot weight as the primary end point in the model.
# Male Harlan Sprague Dawley rats (420-450 g) were acclimated at least 72 hours prior to use. The animals were fasted for 12 hours prior to surgery with free access to water. The animals were anesthetized with a sodium pentobarbital (Nembutal) given intraperitoneally at a dose of 50 mg/kg body weight and placed on a isothermal pad to maintain body temperature. The level of anesthesia was monitored every 15 minutes by: neuro-response to a tail pinch, respiration and core temperature. The desired depth of surgical anesthesia was maintained by administering subsequent doses (5 mg/kg) intravenously. The left femoral artery was catheterized using standard procedures for blood pressure monitoring and blood sampling, with polyethylene tubing (PE50). The left and right femoral veins were catheterized with PE50 tubing for delivery of anethestic and test compounds, respectively.
# Following surgery the animals were randomized in either a control (saline infusion) or treatment group (Compound of Example 8) with at least 6 animals per group per dose. […] Blood pressure, heart rate core temperature and respiration were monitored continuously. […] The clot was immediately weighed and recorded. […]
# [4] = tested on: Harlan Sprague Dawley rats; experiment: Rat model of FeCl3-induced platelet-dependent arterial thrombosis; conditions: for Clot size: [isolated clot/(intact segment-empty segment)] × 100, mean ± S.E.M. (n = 6); for Incidence of Occlusion: zero blood flow in carotid segment, 60 minutes observation
# Source text: Rat model of FeCl3 -induced platelet-dependent arterial thrombosis
# This is a well characterized model of platelet dependent, arterial thrombosis which has been used in the evaluation potential antithrombotic compounds such as direct thrombin inhibitors. Kurz, K. D., Main, B. W., and Sandusky, G. E., Thromb. Res., 60: 269-280 (1990). […] In this model a platelet-rich, occlusive thrombus is formed in a segment of the rat carotid artery treated with a fresh solution of FeCl3 absorbed to a piece of filter paper. The FeCl3 is thought to diffuse into the treated segment of artery and causes de-endothelialization resulting in thrombus formation. The effect of a test compound on the incidence of occlusive thrombus formation following the application of the FeCl3 is monitored by ultrasonic flowtometry and is used as the primary end point. The use of flowtometry is a modification of the original procedure in which thermal detection of clot formation was employed. Kurz, K. D., Main, B. W., and Sandusky, G. E., Thromb. Res., 60: 269-280 (1990).
# Male Harlan Sprague Dawley rats (420-450 g) were acclimated at least 72 hours prior to use and fasted for 12 hours prior to surgery with free access to water. The animals were prepared, anesthetized with Nembutal with catheters for blood pressure monitoring, drug and anesthesia delivery being implanted as described above. The left carotid artery was isolated by making a midline cervical incision followed by blunt dissection and spreading techniques to separate a 2 cm segment of the vessel from the carotid sheath. A silk suture is inserted under the proximal and distal ends of the isolated vessel to provide clearance for the placement of a ultrasonic flow probe (Transonic) around the proximal end of the vessel. The probe is then secured with a stationary arm.
# Following surgery the animals were randomized in either a control (saline infusion) or treatment group with test compound (Compound of Example 8) with at least 6 animals per group per dose. The test compounds were administered as described above after placement of the flow probe and stabilization of the preparation for a period of 30 min prior to the thrombogenic stimulus. At t=0, a 3 mm diameter piece of filter paper (Whatman #3) soaked with […] of a 35% solution of fresh FeCl3 (made up in water) was applied the segment of isolated carotid artery distal to the flow probe. Blood pressure, blood flow, heart rate, and respiration were monitored for 60 minutes.
# The incidence of occlusion (defined as the attainment of zero blood flow) was recorded as the primary end point. Following the 60 minute observation period the flow probe was removed and the area cleared of all excess fluid. The distal and proximal sutures were tied off and arterial clamps placed on the far proximal and distal ends of the segment. The isolated segment was cut out, blotted dry on filter paper and weighed. The segment was re-weighed following removal of the clot and the difference recorded as total % clot weight. The animals were euthanized as described above.
# [5] = Table I, substrate S-2266, HBSA pH 7.5, 0.5 nM α-thrombin
# [6] = Group1: 0.5 mg/kg i.v. bolus + 20 μg/kg/min i.v. infusion
# [7] = Group2: 0.5 mg/kg i.v. bolus + 50 μg/kg/min i.v. infusion
# [8] = Group3: 0.5 mg/kg i.v. bolus + 100 μg/kg/min i.v. infusion
smiles,measurement,setting,value
CCCC(CCC)C(=O)N[C@@H](CCS(C)(=O)=O)C(=O)N1CCC[C@H]1C(=O)N[C@@H](CCCNC(=N)N)C(=O)C(=O)NCCc1ccccc1,IC50,human α-thrombin [1],0.36 nM
same,Ki,human α-thrombin [2]; [5],0.09 nM
CC(C)(C)OC(=O)N[C@@H](CC(=O)O)C(=O)N1CCC[C@H]1C(=O)N[C@@H](CCCNC(=N)N)C(=O)C(=O)NCCCc1ccccc1,IC50,human α-thrombin [1],6.5 nM
same,Ki,human α-thrombin [2]; human α-thrombin,5.5 nM
CS(=O)(=O)CC[C@H](NS(=O)(=O)c1ccc2ccccc2c1)C(=O)N1CCC[C@H]1C(=O)N[C@@H](CCCNC(=N)N)C(=O)C(=O)NCCc1ccccc1,IC50,human α-thrombin [1],0.42 nM
CCCC(CCC)C(=O)N[C@@H](CC(=O)O)C(=O)N1CCC[C@H]1C(=O)N[C@@H](CCCNC(=N)N)C(=O)C(=O)NCCc1ccccc1,IC50,human α-thrombin [1],0.7 nM
same,Ki,human α-thrombin [2]; human α-thrombin,1.5 nM
CS(=O)(=O)CC[C@H](NS(=O)(=O)Cc1ccccc1)C(=O)N1CCC[C@H]1C(=O)N[C@@H](CCCNC(=N)N)C(=O)C(=O)NCCc1ccccc1,IC50,human α-thrombin [1],0.37 nM
CCCC(CCC)C(=O)N[C@@H](CC(=O)OC)C(=O)N1CCC[C@H]1C(=O)N[C@@H](CCCNC(=N)N)C(=O)C(=O)NCCc1ccccc1,IC50,human α-thrombin [1],0.48 nM
same,Ki,human α-thrombin [2]; [5],0.061 nM
CC(C)(C)OC(=O)N[C@@H](CC(=O)O)C(=O)N1CCC[C@H]1C(=O)N[C@@H](CCCNC(=N)N)C(=O)C(=O)NCCc1ccccc1,IC50,human α-thrombin [1],2.2 nM
same,Ki,human α-thrombin [2]; [5],11 nM
same,Clot size,[3]; [6],38.37 ± 4.49 mg
same,Clot size,[3]; [7],17.22 ± 1.79 mg
same,Clot size,[3]; [8],10.20 ± 0.636 mg
same,Clot size,[4]; [6],40.73 ± 8.0%
same,Incidence of Occlusion,[4]; [6],5/6
same,Clot size,[4]; [7],12.56 ± 5.96%
same,Incidence of Occlusion,[4]; [7],1/6
same,Clot size,[4]; [8],4.46 ± 3.49%
same,Incidence of Occlusion,[4]; [8],0/6
